Target: BTK (Homo sapiens, UniProt Q06187)
Assay: BTK degradation in TMD-8 cells, HTRF assay after 6 h treatment
Details: for DC50: IC50 (DC50) of BTK degradation
Procedure: TMD-8 cells are treated with compounds diluted in 0.2% DMSO, dilution is done according to the following protocol: (1) make 500× stock solution in DMSO from 1 mM by 6-fold dilution, total 8 doses were included; (2) make 2× solution in cell culture medium by transferring 0.5 μl 500× stock solution into 125 μl medium; (3) 15 μl of 2× solution is added to cells and incubate for 6 h.
After 6 h treatment, add 10 μl 4×lysis buffer to each well; seal the plate and incubate 30 min at room temperature on a plate shaker; Once the cells are lysed, 16 μL of cell lysate are transferred to a PE 384-well HTRF detection plate; 4 μL of pre-mixed HTRF antibodies are added to each well; Cover the plate with a plate sealer, spin 1000 rpm for 1 min, Incubate overnight at room temperature; Read on BMG PheraStar with HTRF protocol (337 nm-665 nm-620 nm).
The IC50 (DC50) value of a compound can be obtained by fitting the following equation
Y=Bottom+(TOP−Bottom)/(1+((IC50/X)^hillslope))
Wherein, X and Y are known values, and IC50, Hillslope, Top and Bottom are the parameters obtained by fitting with software. Y is the inhibition percentage (calculated from the equation), X is the concentration of the compound; IC50 is the concentration of the compound when the 50% inhibition is reached. The smaller the IC50 value is, the stronger the inhibitory ability of the compound is. Vice versa, the higher the IC50 value is, the weaker the ability the inhibitory ability of the compound is; Hillslope represents the slope of the fitted curve, generally around 1*; Bottom represents the minimum value of the curve obtained by data fitting, which is generally 0%±20%; Top represents the maximum value of the curve obtained by data fitting, which is generally 100%±20%. The experimental data were fitted by calculating and analyzing with Dotmatics data analysis software.

Protein sequences, listed by entry. Tags and fused reporters are not part of them.
UniProt Q06187, whole entry: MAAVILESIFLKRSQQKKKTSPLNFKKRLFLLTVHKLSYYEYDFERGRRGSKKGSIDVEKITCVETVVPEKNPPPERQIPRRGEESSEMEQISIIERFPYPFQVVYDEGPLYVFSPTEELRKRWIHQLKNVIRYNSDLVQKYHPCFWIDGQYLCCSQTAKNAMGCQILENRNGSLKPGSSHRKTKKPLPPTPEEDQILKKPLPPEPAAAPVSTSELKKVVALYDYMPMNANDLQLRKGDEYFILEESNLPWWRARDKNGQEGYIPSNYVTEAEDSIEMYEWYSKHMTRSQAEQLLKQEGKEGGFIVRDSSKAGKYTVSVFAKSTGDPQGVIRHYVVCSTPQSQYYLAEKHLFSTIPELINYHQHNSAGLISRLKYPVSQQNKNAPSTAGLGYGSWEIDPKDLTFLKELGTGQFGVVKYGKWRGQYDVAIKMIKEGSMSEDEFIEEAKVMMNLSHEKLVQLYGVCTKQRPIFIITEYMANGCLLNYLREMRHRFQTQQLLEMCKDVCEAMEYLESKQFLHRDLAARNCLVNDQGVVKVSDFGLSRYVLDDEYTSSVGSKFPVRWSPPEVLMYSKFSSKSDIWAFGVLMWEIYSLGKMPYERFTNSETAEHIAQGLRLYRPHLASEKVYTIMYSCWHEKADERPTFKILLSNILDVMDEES

DC50 | Compound | Dmax (maximum percentage of inhibition (degradation))
> 2000 nM | Cc1cc(-c2n[nH]c3ncc(-c4ccc(N5CCN(CCc6ccc(C7CC(=O)NC7=O)cc6)CC5)cc4)cc23)ccc1[C@@H](C)NC(=O)c1nc(C(C)(C)C)no1 (stereo partly shown) | 
2.07 nM | Cc1cc(-c2n[nH]c3ncc(-c4ccc(N5CC6CN(CC7CCN(c8ccc(N9CCC(=O)NC9=O)cc8)CC7)CC6C5)cn4)cc23)ccc1[C@@H](C)NC(=O)c1noc(C(C)(C)C)n1 (stereo partly shown) | 

Compound | DC50 | Dmax (maximum percentage of inhibition (degradation))
Cc1cc(-c2n[nH]c3ncc(-c4ccc(C5CCN(CCCOc6ccc(NC7CCC(=O)NC7=O)cc6)CC5)cc4)cc23)ccc1CNC(=O)c1nc(C(C)(C)C)no1 (stereo not shown) | 1.81 nM | 98.17%

Source: US20230322761A1, “DEGRADATION OF BRUTON'S TYROSINE KINASE (BTK) BY CONJUGATION OF BTK INHIBITORS WITH E3 LIGASE LIGAND AND METHODS OF USE” (BEIGENE, LTD., priority 2020, published 2023)
